# Measured affinities in a library of Ab-14 heavy chain variants

Reference: Li et al. 2023, doi:10.1038/s41467-023-39022-2. File: FLAb, binding data.

Binding partner: SARS-CoV-2 spike HR2 peptide, sequence PDVDLGDISGINAS.

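The starting antibody came from a phage panning campaign against this peptide. This is the validation round: designs drawn from the data on random variants, tested in the same kind of assay. Several design methods are mixed in this list. AlphaSeq pools MATa yeast showing the antibodies with MATalpha yeast showing the peptide. After mating in shaken culture at 30 °C for 16 h, diploids were selected and their barcode pairs sequenced. The ratio of observed to expected reads was calibrated, replicate by replicate, on BCL2-family standards whose Kd was known from biolayer interferometry. The assay was run in six technical replicates.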

The variants keep the light chain, the linker and the frameworks of Ab-14 (scFv order VH, the linker GGGGSGGGGSGGGGS, VL).
VH: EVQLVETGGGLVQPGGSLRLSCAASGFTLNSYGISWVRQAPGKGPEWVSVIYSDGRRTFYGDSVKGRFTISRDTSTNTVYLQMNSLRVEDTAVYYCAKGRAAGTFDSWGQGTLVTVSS
VL: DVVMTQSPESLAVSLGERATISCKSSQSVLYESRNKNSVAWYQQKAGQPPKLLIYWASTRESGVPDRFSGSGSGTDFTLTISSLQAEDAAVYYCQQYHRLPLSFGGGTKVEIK

Substitutions are numbered in sequence along the VH above, starting at 1 (not Kabat).
This list holds designs with at most six substitutions.
Scale: log10 of Kd in nM, estimated from mating counts; low values are strong binders.
Averages over replicates are reported, and they cover detected replicates only.
Where no diploid with the target was found in that replicate, the entry reads "ND": below detection, most likely a poor binder, though not proof of it.
The list is sorted by this average, lowest first, undetected variants last.
The authors' rule: three or more of the six replicates give a measured affinity, fewer mean a poor binder.

* T28E/S31D/A101E/S107T: ND, -0.40, -0.64, -0.70, 0.09, -0.63 (mean -0.46)
* T28D/S31E/S53A/G61S/R100Q/A101T: -0.16, 0.11, -0.30, -0.40, -0.21, -0.08 (mean -0.17)
* T28S/S31D/G61A/A101M: -0.24, -0.26, -0.14, -0.12, -0.08, -0.14 (mean -0.16)
* T28G/S31E/F59A: 0.06, -0.15, -0.12, 0.04, -0.01, -0.14 (mean -0.05)
* S31E/F59W/G61T/A101T: 0.30, 0.07, -0.34, -0.24, -0.14, 0.06 (mean -0.05)
* T28S/S31T/G61A/R100K: -0.03, 0.09, 0.12, -0.14, -0.27, 0.02 (mean -0.03)
* R56K/G61S/S63D/R100Q/S107L: 0.21, 0.16, 0.41, -0.38, -0.39, -0.09 (mean -0.01)
* R56V/G61S/R100S: 0.41, 0.64, 0.21, 1.12, 0.25, 0.11 (mean 0.46)
* T28N/R100K/A101E: 0.65, 1.72, -0.11, 0.47, -0.16, 0.24 (mean 0.47)
* T28E/S31M/G61T/R100Q/A101T: 0.80, 0.21, 0.57, 0.20, 0.98, 0.86 (mean 0.60)
* S31N/S53A/F105L: 0.88, 1.13, 0.36, -0.14, 0.63, 0.83 (mean 0.61)
* G26K/T28S/G61A/R100W/A101T: 0.64, 1.18, 0.93, 0.35, 0.28, 0.56 (mean 0.66)
* G26Y/T28E/G61A/A101T: 0.77, ND, ND, ND, ND, ND
* R56I/A101V/S107T: 1.35, 0.74, 0.03, 0.41, 1.08, 1.23 (mean 0.81)
* S31E/G61S/R100K: 2.68, 0.21, -0.11, -0.03, 1.53, 0.61 (mean 0.82)
* T28G/S31Q/G61S: 1.71, -0.01, 0.42, 0.97, 1.41, 0.48 (mean 0.83)
* F27K/S31E/G61T/A101F: ND, 0.92, ND, ND, ND, ND
* T28S/G61A/S63K/R100E: 1.27, 1.07, 0.55, 1.18, 0.75, 0.82 (mean 0.94)
* R56L/G61T/R100K/A101V: 0.93, 0.65, 1.38, ND, 0.95, 0.88 (mean 0.96)
* T28S/G61V/R100K: 0.82, 0.88, 0.72, 1.39, ND, 1.44 (mean 1.05)
* T28G/S107V: ND, 0.92, ND, 2.38, 0.63, 2.33 (mean 1.56)
* S35Q: ND, ND, ND, 1.68, ND, ND
* S31E/S107L: 1.45, 3.96, 0.63, 1.89, 1.00, 1.40 (mean 1.72)
* T28D/G61I/D106N/S107K: ND, ND, ND, 1.83, 1.75, ND (mean 1.79)
* T28N/N30D/I34V/F59A/A102W: ND, ND, ND, 2.40, ND, ND
* R56K/R100W/S107L: ND, ND, ND, ND, ND, 2.41
* T28H/K65R: 3.45, 2.31, 1.93, ND, 1.96, 3.01 (mean 2.53)
* F27Y/G61D/R100Q/A101L: ND, ND, ND, 2.00, 3.54, ND (mean 2.77)
* N30D/R56S/A101P: 2.71, ND, 1.96, 3.23, 2.87, 3.79 (mean 2.91)
* N30L/G61D/S63D/R100S: ND, 2.59, ND, 3.48, ND, 3.17 (mean 3.08)
* T28G/G61M/A101E/F105S: ND, ND, ND, ND, ND, ND
* T28S/S31Q/G61S/G103V/S107T: ND, ND, ND, ND, ND, ND
* T28D/A102E: ND, ND, ND, ND, ND, ND
* I34E/S53A/F105N/D106K: ND, ND, ND, ND, ND, ND
* D106E/S107D: ND, ND, ND, ND, ND, ND
* F27I/G61S/D62E/A102G: ND, ND, ND, ND, ND, ND
* N30D/G61I/D106S: ND, ND, ND, ND, ND, ND
* T28R/S31E/F105W: ND, ND, ND, ND, ND, ND
* G26K/T28Q/S31A/A101T: ND, ND, ND, ND, ND, ND
* S31D/F59Q/G61I/F105Q: ND, ND, ND, ND, ND, ND
* T28E/Y32G/G33M/T104W/D106N: ND, ND, ND, ND, ND, ND
* G61I/D62N/A101E: ND, ND, ND, ND, ND, ND
* T28N/N30L/R56M/G103A/D106I: ND, ND, ND, ND, ND, ND
* T28S/G61K/R100E: ND, ND, ND, ND, ND, ND
* N30D/V64E/F105A/D106L: ND, ND, ND, ND, ND, ND
* R56Y/G61I/V64Y: ND, ND, ND, ND, ND, ND
* S31E/Y32P/D62Q/G103V/S107G: ND, ND, ND, ND, ND, ND
* T28N/G61A/G103A/S107T: ND, ND, ND, ND, ND, ND

The first 4 variants above that were never detected:

changes	replicates, log10 nM	mean log10 Kd (nM)
T28G/G61M/A101E/F105S	ND, ND, ND, ND, ND, ND	ND
T28S/S31Q/G61S/G103V/S107T	ND, ND, ND, ND, ND, ND	ND
T28D/A102E	ND, ND, ND, ND, ND, ND	ND
I34E/S53A/F105N/D106K	ND, ND, ND, ND, ND, ND	ND

Background: pairings of all heavy chain designs with three empty control strains gave a value in 1% of cases (median 2.08, 5th percentile 0.84). Values in that range, when seen in few replicates, are hard to tell from nonspecific mating.
Of ten entries with the parent sequence, four were seen in most replicates (averages 0.34 to 2.37), three in one and three in none, so single entries are noisy.
The range of this assay differs from that of the first round, and the authors advise against merging the two.